84 compounds from ChEMBL document CHEMBL3301361, “Experimental in vitro DMPK and physicochemical data on a set of publicly disclosed compounds” can be followed below.

One series can be described thus: in vitro. As to conditions: human, plasma.
Compound `CCc1c(C(=O)C(N)=O)c2c(OCC(N)=O)cccc2n1Cc1ccccc1` had a free fraction (fraction unbound) at 5 h of 0.151.

`Cc1nc(-c2cccc(C(F)(F)F)c2)sc1C(=O)O` gave a fraction unbound at 5 h of 0.003. `O=P1(N(CCCl)CCCl)NCCCO1` (centres undefined) [CYCLOPHOSPHAMIDE ANHYDROUS] gave an unbound share (fraction unbound) at 5 h of 0.799. Compound `CC(=O)NC1CC2CCCC(C1)N2C(=O)Nc1ccc(Cl)c(C(F)(F)F)c1` (centres undefined) gave a fraction unbound at 5 h of 0.0209.

On to `CCCN(c1cncnc1)P(=O)(c1ccccc1)c1ccccc1`, for which the free fraction (fraction unbound) at 5 h is 0.119.

The same series, now with this note: human, plasma, PPB.
Take `CC(=O)Nc1ccc(Nc2cc(C)nc3c(-c4ccccc4)cnn23)cc1`: the fraction unbound at 5 h was 0.0042. Turning to `Cc1c(CN(C)C(=O)/C=C/c2cnc3c(c2)CCC(=O)N3)oc2ccccc12` [AFN-1252], the fraction unbound at 5 h was 0.0544. On the same count and under the same terms, the value for `Cc1cc(C)cc(C(=O)Nc2ccc(Cl)c(C(=O)Nc3cncs3)c2)c1` was 0.004; that for `O=C(NCc1ccccc1)c1ccc2cccnc2c1O` was 0.0307. In turn, `Cc1nc(-c2c(F)cc(Cl)cc2-c2cnc([C@@H](C)NC(=O)[C@@](C)(O)C(F)(F)F)c(F)c2)no1` had an unbound share (fraction unbound) at 5 h of 0.02. In turn, `O=C(NCc1ccc(OC(F)(F)F)cc1)C1c2ccccc2C(=O)N1CCc1ncccn1` (centres undefined) showed a fraction unbound at 5 h of 0.0818. In turn, `Cc1c(CC(=O)O)c2cc(F)ccc2n1Cc1nc2ccccc2s1` gave a fraction unbound at 5 h of 0.0167. On to `Cc1cc(F)ccc1-n1nc(C(F)(F)F)cc1-c1ccc2c(c1)NC(=O)CO2`, for which the fraction unbound at 5 h is 0.262. In turn, `Cc1ccc(S(=O)(=O)N(C)c2ccc3sc(C)nc3c2)cc1` showed a fraction unbound at 5 h of 0.0074. For the compound `C[C@@](O)(C(=O)Nc1ccc(S(C)(=O)=O)cc1Cl)C(F)(F)F`, the fraction unbound at 5 h is 0.392.

`O=C(CCS(=O)(=O)c1ccc(Br)cc1)NCc1cccs1` gave a fraction unbound at 5 h of 0.0854. On to `CN1CCCCC1CCN1c2ccccc2Sc2ccc([S+](C)[O-])cc21` (centres undefined) [MESORIDAZINE], for which the fraction unbound at 5 h is 0.0768. Still for that read-out and setting: the same measure for `CC(C)C[C@H](CO)Nc1nc(SCc2ccccc2)nc2[nH]c(=O)sc12`: 0.002; for `Cc1ccc2c(OCCN3CCC(Cc4cccc(NS(C)(=O)=O)c4)CC3)cccc2n1`: 0.03. The same measure, in the same setting: the same measure for `CNC(=O)Nc1nc2ccc(-c3cncc(S(=O)(=O)NC(C)(C)C)c3)cn2n1`: 0.355; for `Cc1c(Sc2ccc(Cl)cc2)c2c(-c3ccccc3)cccc2n1CC(=O)O`: 0.0032. In turn, `CC(=O)Nc1ccc(CNc2[nH]nc3ccnc(Oc4ccccc4)c23)cc1` showed a free fraction (fraction unbound) at 5 h of 0.101.

Compound `Cc1ccc(S(=O)(=O)Nc2c(C(=O)N[C@@H](C)C(C)(C)C)c(C)nn2C2CCS(=O)(=O)CC2)cc1` gave a fraction unbound at 5 h of 0.208. Same read-out and setting: the value for `COc1ccccc1CCNCc1cccc(CCNC[C@H](O)c2ccc(O)c3[nH]c(=O)sc23)c1` was 0.0594; that for `COc1cccc2c1CCC21NCc2ccccc21` (centres undefined) was 0.208; that for `CCOC(=O)/C=C/[C@H](C[C@@H]1CCNC1=O)NC(=O)[C@@H](CC(=O)[C@@H](NC(=O)c1cc(C)on1)C(C)C)Cc1ccc(F)cc1` was 0.17. On the same count and under the same terms, the value for `CCc1nn(C2CCCC2)c2c1CCn1c(-c3cccs3)nnc1-2` [TOFIMILAST] was 0.0374; that for `COc1cc(-n2cnc3cc(-c4ccc(Cl)cc4)sc3c2=O)ccc1OCCN1CCCC1` was 0.0139. On to `NC(=O)[C@@H](CCC(F)(F)F)N(Cc1ccc(-c2ncon2)cc1F)S(=O)(=O)c1ccc(Cl)cc1`, for which the fraction unbound at 5 h was 0.0167. On the same count and under the same terms, the value for `O=c1c2cc(-c3ccc(Cl)cc3)oc2ccn1-c1ccc2c(cnn2CCN2CCCC2)c1` was 0.0066; that for `Cc1nn(C)c(C)c1-c1ccc(-c2nc3ccncc3c(O)c2C#N)cc1` was 0.0036; that for `Cc1cc(F)ccc1Oc1cccc2c(=O)cc(N3CCOCC3)[nH]c12` was 0.0119.

Compound `O=C1NC(c2ccc(Br)cc2)Nc2ccccc21` (centres undefined) gave an unbound share (fraction unbound) at 5 h of 0.051. `CS(=O)(=O)c1ccc(-c2ccc3c(Nc4ccc(F)cc4)c(C(N)=O)cnc3c2)cc1` gave a free fraction (fraction unbound) at 5 h of 0.013.

With `COc1ccc(Cc2c(N)n[nH]c2N)cc1`, the fraction unbound at 5 h is 0.194.

Take `CCNC(=O)c1cc2c(-n3ccc(C(F)(F)F)n3)c(-c3cncc(C#N)c3)cnc2[nH]1`: the free fraction (fraction unbound) at 5 h was 0.089. Still for that read-out and setting: the value for `C[C@H](CO)Nc1[nH]c(SCc2ccccc2F)nc2nc(=O)sc1-2` was 0.0014. On the same count and under the same terms, the same measure for `NC(=O)c1cnc(N[C@H]2CCCNC2)c2cc(-c3ccc(F)cc3F)sc12`: 0.0467. Same read-out and setting: the value for `N#Cc1ccc(C(=O)Nc2ccc(-n3ccnc3)nc2)cc1` was 0.289; that for `COc1cc(OC2CCN(C)CC2)c2c(Nc3cccc4c3OCO4)ncnc2c1` was 0.0209; that for `N#Cc1ccccc1C[C@@H](C(=O)O)N1CCC(CN2CCC(Oc3ccc(Cl)c(Cl)c3)CC2)CC1` was 0.0909. In the case of `CN1CCCN(C(c2ccccc2)c2ccc(Cl)cc2)CC1` (centres undefined) [HOMOCHLORCYCLIZINE], the fraction unbound at 5 h is 0.0606. Compound `CN(C)CCN(Cc1cccc2ccccc12)c1cc(N2CCOCC2)nc(=O)[nH]1` had a fraction unbound at 5 h of 0.339. Same read-out and setting: the same measure for `O=S(=O)(Nc1ccc2sc(CO)nc2c1)c1ccc(Br)cc1`: 0.0069; for `OCCOCCN1CCN(C(c2ccccc2)c2ccc(Cl)cc2)CC1` (centres undefined) [HYDROXYZINE]: 0.0818. The compound `Cn1c(=O)c(-c2c(Cl)cccc2Cl)cc2cnc(Nc3ccc(F)cc3)nc21` had a fraction unbound at 5 h of 0.004. The same measure, in the same setting: the same measure for `Cn1cnc([N+](=O)[O-])c1Sc1ncnc2nc[nH]c12` [AZATHIOPRINE]: 0.324; for `CS(=O)(=O)c1ccc(-c2cc(C(F)(F)F)ccc2OCC(=O)O)cc1`: 0.0676. `CCc1c2c(nc3ccc(O)cc13)-c1cc3c(c(=O)n1C2)COC(=O)[C@]3(O)CC` [7-ETHYL-10-HYDROXYCAMPTOTHECIN] showed a fraction unbound at 5 h of 0.0768. As to `CC(=O)Nc1cc2c(ccn2-c2cc(NC3CC3)n3ncc(C#N)c3n2)cc1C`, the fraction unbound at 5 h is 0.0209. Consider `Cc1nc(C(=O)N2CCOC3(CCN(Cc4ccc(Cl)cc4)CC3)C2)cs1`, for which the unbound share (fraction unbound) at 5 h is 0.431. `CN[C@@H](C)C(=O)N[C@H](C(=O)N[C@H]1CCCN(CC(c2ccccc2)c2ccccc2)C1)C1CCCCC1`: the fraction unbound at 5 h is 0.0262. Same read-out and setting: the same measure for `Nc1nc(-c2ccccn2)nc(N)c1Cc1ccc(Cl)cc1Cl`: 0.0139; for `CC(C)C(NC(=O)c1cc(Cl)ccc1C(F)(F)F)C(=O)c1ccc([N+](=O)[O-])cc1` (centres undefined): 0.0119; for `Cc1cn([C@H]2CCCN(S(=O)(=O)c3ccc(CO)c(Oc4cccc(Cl)c4)c3)C2)c(=O)[nH]c1=O`: 0.0736.

In turn, `CCOc1ccccc1C(=O)NCc1ccco1` showed a fraction unbound at 5 h of 0.0418. For the compound `COc1ccc(-c2nc(-c3ccccn3)no2)cc1`, the fraction unbound at 5 h is 0.024.

For `Cc1ccc(-c2nnc(SCC(=O)N3CCN(c4ccccc4)CC3)o2)cc1`, the fraction unbound at 5 h is 0.0018. Still for that read-out and setting: the value for `CC[C@H](CO)Nc1nc(SCc2cccc(F)c2F)nc2nc(NC(C)C)sc12` was 0.004.

Take `Cc1cc(-n2cnc3ccc(N[C@@H](C)c4ncc(F)cn4)nc32)n[nH]1`: the fraction unbound at 5 h was 0.387.

Turning to `NC(=O)c1cnc(N[C@H]2CCCNC2)c2cc(-c3ccc(F)c(F)c3)sc12`, the fraction unbound at 5 h is 0.0191.

`COc1cc(OC)c(S(=O)(=O)N(c2ccc(C)cc2)c2ccc(C)cc2)cc1NC(=O)CCC(=O)O` gave a fraction unbound at 5 h of 0.0488.

Consider `O=C(c1csc2c1CCCC2)N1CCCCC1`, for which the free fraction (fraction unbound) at 5 h is 0.0928.

As to `CN1CCN(CCOc2n[nH]c3ncnc(Nc4ccc(OCc5ccccn5)c(Cl)c4)c23)CC1`, the fraction unbound at 5 h is 0.117.

`Cc1nocc1C(=O)Nc1ccc(-c2ccccc2OC(F)(F)F)c(N)n1` had an unbound share (fraction unbound) at 5 h of 0.016.

The nature of a further series: in vitro. As to conditions: human, hepatocytes.
`COc1cc2nccc(Oc3ccc(NC(=O)C4(C(=O)Nc5ccc(F)cc5)CC4)cc3)c2cc1OC` [CABOZANTINIB] displayed an intrinsic metabolic clearance (hepatocyte CLint) of 6.76 µL/min/1e6 cells. Turning to `CC1CCC2C(C)C(=O)OC3OC4(C)CCC1C32OO4` (centres undefined), the intrinsic metabolic clearance (hepatocyte CLint) came to 18.2 µL/min/1e6 cells. Still for that read-out and setting: the value for `O=C(O)C[C@H](O)C[C@H](O)/C=C/c1c(C2CC2)nc2ccccc2c1-c1ccc(F)cc1` [PITAVASTATIN] was 14.5 µL/min/1e6 cells.

With `Cc1cc(OCCCS(C)(=O)=O)cc(C)c1-c1cccc(COc2ccc3c(c2)OC[C@H]3CC(=O)O)c1`, the intrinsic clearance (hepatocyte CLint) is 5.25 µL/min/1e6 cells. Still for that read-out and setting: the same measure for `Cc1nc(-c2ccc(OCC(C)C)c(C#N)c2)sc1C(=O)O` [FEBUXOSTAT]: 7 µL/min/1e6 cells. The compound `Cc1cnc(Nc2ccc(F)cc2Cl)nc1-c1c[nH]c(C(=O)N[C@H](CO)c2cccc(Cl)c2)c1` gave a hepatocyte CLint of 8.51 µL/min/1e6 cells. Same read-out and setting: the value for `O=c1[nH]c2c(O)ccc(CCNCCS(=O)(=O)CCCOCCc3ccccc3)c2s1` [SIBENADET] was 42.5 µL/min/1e6 cells. On the same count and under the same terms, the value for `C[C@H](c1nc2ncccc2c(=O)n1-c1ccc(Cl)cc1)N(CC1CCS(=O)(=O)CC1)C(=O)Cc1ccc(C(F)(F)F)c(F)c1` was 5.13 µL/min/1e6 cells.

The compound `COc1ccc(CNC(=O)CSc2nc3cccnc3s2)cc1` returned a hepatocyte CLint of 60.3 µL/min/1e6 cells. `CC(C(=O)O)c1ccc(C(=O)c2cccs2)cc1` (centres undefined) [SUPROFEN] displayed a hepatocyte CLint of 9.77 µL/min/1e6 cells.

Take `Cc1ccc(N2CC(COc3ccc(-c4noc(C)n4)cc3)C2)nn1`: the hepatocyte CLint was found to be 26.4 µL/min/1e6 cells. The same measure, in the same setting: the value for `O=C(O)CCc1ccc(OCc2cc(Cl)ccc2-c2ccccc2)cc1` was 21.4 µL/min/1e6 cells. Still for that read-out and setting: the same measure for `CCN(CC)Cc1cc(Nc2ccnc3cc(Cl)ccc23)ccc1O` [AMODIAQUINE]: 32.4 µL/min/1e6 cells; for `Cc1ccc(C(=O)c2ccc(CC(=O)O)n2C)cc1` [TOLMETIN]: 9.12 µL/min/1e6 cells; for `CC(C)NC[C@@H](C(=O)N1CCN(c2ncnc3c2[C@H](C)C[C@H]3O)CC1)c1ccc(Cl)cc1` [IPATASERTIB]: less than 3 µL/min/1e6 cells.

Turning to `O=C(CN1CCOCC1)Nc1ccc(-c2cccc3c(=O)cc(N4CCOCC4)oc23)cc1OCC1CC1`, the hepatocyte CLint stood at 95.5 µL/min/1e6 cells. Same read-out and setting: the same measure for `Cc1ccc(-c2cc(C(F)(F)F)nn2-c2ccc(CC(=O)O)cc2)cc1`: 4.79 µL/min/1e6 cells. The same measure, in the same setting: the value for `CCCNC(=O)CSc1ccc(S(=O)(=O)N2CCCC2)cn1` was less than 3 µL/min/1e6 cells; that for `COc1ccc(C)c(Nc2ncc3ccn(-c4ccccn4)c3n2)c1` was 102 µL/min/1e6 cells.
